# Molecular target: R282H-SCN5A (human) (UniProt Q14524)
# Assay: cell-based or functional assay
Substance,Peak Current Density (pA/pF),whole-cell currents as percent of WT-SCN5A values
H558R-SCN5A (from UniProt Q14524 1-2016),-444 pA/pF,–
WT-SCN5A (from UniProt Q14524 1-2016),-353 pA/pF,58%
